Experimental data as given in patent US11607390B2, “Self-righting systems and related components and methods” (priority 2017, dated 2023).

System: glucose-6-phosphate
Settings: micropost tips 40% G6PD, 60% PEO 200k vs uncompressed
Excerpt: To perform the activity assay on G6PD, an activity assay kit (Sigma Aldrich) was used which measures the amount of oxidized glucose-6-phosphate.

For glucose-6-phosphate dehydrogenase, the “enzymatic activity after the manufacturing process” value was “maintain their activity”.
